This is a sample that favours compounds with a hit; in the whole collection about 1.8% have one here.
Yeast UUG start – alters start codon recognition fidelity in yeast. S. cerevisiae UUG-firefly luciferase reporter, luminescence/redox ratio. 350,000 tested, 0.13% active. activity score, % at 18.7 µM. AID 602363;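 active means replicate mean at a twofold rise or more, about +100% in these data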;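 further: firefly luciferase made from a UUG start codon reports start codon fidelity; reporter light over untreated wells divided by growth signal over untreated wells; some hits fall short of that in this replicate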
Cneo AK release – Cryptococcus neoformans cell lysis inducers, primary screen, AK release luminescence, single concentration; C. neoformans lysis, adenylate kinase release luminescence, 4 h; normalised: neutral wells 0, clomiphene wells 100; lysis activity, % at 15 µM; 360,000 compounds, 0.2% hits; AID 651654, 2012;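 active = mean lysis activity across replicates of at least 80%, whatever share of replicates individually reach that level; inactive = mean lysis activity below 80%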
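Material – Cryptococcus neoformans yeast cells · Quantity – 5 × 10^6 yeast cells/mL · Buffer or medium – YPD medium · Compound – single dose · Timing – 4 h static compound exposure, 37 °C, read 1 h post-reagent · Signal – adenylate kinase release luminescence · Read-out basis – lysis from increased AK signal · Benchmarks – Clomiphene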
E-sel inducer – E-selectin induction in HUVECs, primary screen, imaging, HUVEC, immunofluorescence imaging, single point. 260,000 compounds, 0.37% hits. normalized: neutral wells 0, TNF-alpha wells 100. activation, % at 7.58 µM. P16581;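 active = mean E-selectin-positive cell signal at least 10% of the positive control, reached in at least 60% of replicates, without over 20% cell loss; inconclusive = no rule given, readout overlaps actives, possibly toxicity-flagged; inactive = the rest, including those meeting only one limit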
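System: HUVEC, human umbilical vein endothelial cells; quantity: 3,000 cells/well; buffer or medium: EGM-2 medium, gelatin-coated wells; dosing: single-point compound dose; detection: immunofluorescence imaging; evaluation: % PE-positive cells; benchmarks: TNF-alpha, DMSO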
DENV2 CPE rescue – inhibitors of DENV2 cytopathic effect, primary screen, cell-based, plate reader, single concentration | DENV2-infected cells, cytopathic effect rescue | 350,000 compounds, 1.7% hits | CPE inhibition, % at 9.99 µM; in the data active = CPE inhibition above about 20%, passing the limit was not always enough; inconclusive = no clear call, values can overlap the other calls; tested in BHK-21 cells
A number is an active result.

Results for O=C(C[C@H]1C[C@H]2c3cc(NC(=O)c4ccc5c(c4)OCO5)ccc3O[C@H]2[C@H](CO)O1)NC1CCCC1 ?
Yeast UUG start: inactive; Cneo AK release: inactive; E-sel inducer: inactive; DENV2 CPE rescue: inactive

How did Cc1nc(C(=O)NC2CCOCC2)sc1C1(C)CC(c2ccccc2)=NO1 (stereo not given) do in these assays?
Yeast UUG start: inactive; Cneo AK release: inactive; E-sel inducer: inactive; DENV2 CPE rescue: inactive

What do the screens show for `Cc1nc(C(=O)NC2CCOCC2)sc1C1(C)CC(c2cccc([N+](=O)[O-])c2)=NO1` (stereo not given)?
Yeast UUG start: inactive; Cneo AK release: inactive; E-sel inducer: inactive; DENV2 CPE rescue: 43.8

What do the screens show for `COc1ccc(CN(C)C[C@@H]2Oc3ccc(NC(=O)C4CC4)cc3CC(=O)N([C@H](C)CO)C[C@@H]2C)cc1`?
Yeast UUG start: inactive; Cneo AK release: inactive; E-sel inducer: inactive; DENV2 CPE rescue: inactive

How did CCCC(=O)OC[C@H]1CN(C2CCCC2)S(=O)(=O)c2c(F)cccc2O1 do in these assays?
E-sel inducer: inactive; DENV2 CPE rescue: 49.0

What do the screens show for `O=C(NC1CCCC1)C(C1CC1)n1c(C2CCCC2)nc2ccccc21` (stereo not given)?
E-sel inducer: inactive; DENV2 CPE rescue: 50.6

What do the screens show for `O=C(NC1CCCC1)C(C1CC1)n1c(C2CC2)nc2ccccc21` (stereo not given)?
E-sel inducer: inactive; DENV2 CPE rescue: inactive

How did Cc1ccc(-c2nc3ccccc3n2C(C(=O)NC(C)(C)C)C2CC2)cc1 (stereo not given) do in these assays?
E-sel inducer: inactive; DENV2 CPE rescue: 31.1

How did CO[C@H]1CN(C)C(=O)c2ccc(NC(C)=O)cc2OC[C@H](C)N(Cc2ccncc2)C[C@H]1C do in these assays?
Yeast UUG start: inactive; Cneo AK release: inactive; E-sel inducer: inactive; DENV2 CPE rescue: inactive

Results for C/C=C/c1ccc2c(c1)O[C@H](CN(C)C(=O)COC)[C@H](C)CN([C@H](C)CO)S2(=O)=O ?
Yeast UUG start: inactive; Cneo AK release: inactive; E-sel inducer: inactive; DENV2 CPE rescue: inactive

How did O=C(Nc1ccc(F)cc1)N1CCCCN2[C@H](CO)[C@@H](c3ccc(C4=CCCCC4)cc3)[C@H]2C1 do in these assays?
Yeast UUG start: inactive; Cneo AK release: inactive; E-sel inducer: inactive; DENV2 CPE rescue: 28.8

How did N#Cc1cccc(-c2ccc([C@@H]3[C@H](CO)N4CCCCN(C(=O)Nc5ccc(F)cc5)C[C@@H]34)cc2)c1 do in these assays?
Yeast UUG start: inactive; Cneo AK release: inactive; E-sel inducer: inactive; DENV2 CPE rescue: 25.5

Results for O=C(Nc1ccc(F)cc1)N1CCCCN2[C@@H](CO)[C@H](c3ccc(C4=CCCCC4)cc3)[C@@H]2C1 ?
Yeast UUG start: inactive; Cneo AK release: inactive; E-sel inducer: inactive; DENV2 CPE rescue: inactive

What do the screens show for `CO[C@@H]1CN(C)C(=O)c2ccc(NC(=O)C3CC3)cc2OC[C@@H](C)N(C(=O)c2ccccn2)C[C@H]1C`?
E-sel inducer: inactive; DENV2 CPE rescue: inactive

Results for CN(C)C(=O)C[C@@H]1C[C@@H]2c3cc(NC(=O)c4ccc5c(c4)OCO5)ccc3O[C@@H]2[C@@H](CO)O1 ?
Yeast UUG start: inactive; Cneo AK release: inactive; E-sel inducer: inactive; DENV2 CPE rescue: inactive

How did CO[C@@H]1CN(C)C(=O)c2ccc(NC(=O)Nc3cccc(F)c3)cc2OC[C@@H](C)N(C(C)=O)C[C@H]1C do in these assays?
Cneo AK release: inactive; E-sel inducer: inactive; DENV2 CPE rescue: 109.2

Results for CO[C@@H]1CN(C)C(=O)c2ccc(NC(=O)c3cccc(F)c3)cc2OC[C@H](C)N(C(C)=O)C[C@@H]1C ?
Yeast UUG start: inactive; Cneo AK release: inactive; E-sel inducer: inactive; DENV2 CPE rescue: 34.1

What do the screens show for `COc1cccc(C(=O)Nc2ccc3c(c2)C(=O)N(C)C[C@H](OC)[C@@H](C)CN(C(C)=O)[C@H](C)CO3)c1`?
Cneo AK release: inactive; E-sel inducer: inactive; DENV2 CPE rescue: 64.5

How did CO[C@@H]1CN(C)C(=O)c2ccc(NC(=O)Nc3ccccc3)cc2OC[C@H](C)N(C(C)=O)C[C@@H]1C do in these assays?
Yeast UUG start: inactive; Cneo AK release: inactive; E-sel inducer: inactive; DENV2 CPE rescue: inactive

Results for CO[C@@H]1CN(C)C(=O)c2ccc(NC(=O)Nc3ccccc3)cc2OC[C@H](C)N(C(C)=O)C[C@H]1C ?
Yeast UUG start: inactive; Cneo AK release: 118.6; E-sel inducer: inactive; DENV2 CPE rescue: inactive

What do the screens show for `COc1ccc(NC(=O)N(C)C[C@@H]2Oc3ccc(NS(=O)(=O)c4ccc(C)cc4)cc3C(=O)N([C@H](C)CO)C[C@@H]2C)cc1`?
E-sel inducer: inactive

What do the screens show for `CN1C(=O)c2cc(NC(=O)c3ccccc3)ccc2OC[C@H]2O[C@H](CC(=O)O)CC[C@H]21`?
Yeast UUG start: inactive; Cneo AK release: inactive; E-sel inducer: inactive; DENV2 CPE rescue: inconclusive

How did CO[C@@H]1CN(C)C(=O)c2ccc(NC(=O)Nc3cccc(F)c3)cc2OC[C@@H](C)N(C(=O)Nc2c(C)noc2C)C[C@H]1C do in these assays?
Yeast UUG start: inactive; Cneo AK release: inactive; E-sel inducer: inactive; DENV2 CPE rescue: 62.9

Results for CO[C@H]1CN(C)C(=O)c2ccc(NC(=O)c3ccccc3)cc2OC[C@H](C)N(C(=O)CN(C)C)C[C@H]1C ?
Yeast UUG start: inactive; Cneo AK release: inactive; E-sel inducer: inactive; DENV2 CPE rescue: 29.5

What do the screens show for `CO[C@@H]1CN(C)C(=O)c2ccc(NC(=O)c3ccccc3)cc2OC[C@H](C)N(C(=O)CN(C)C)C[C@H]1C`?
Yeast UUG start: inactive; Cneo AK release: inactive; E-sel inducer: inactive; DENV2 CPE rescue: inactive

Results for CO[C@@H]1CN(C)C(=O)c2ccc(NC(=O)Nc3ccccc3)cc2OC[C@@H](C)N(C(C)=O)C[C@@H]1C ?
Yeast UUG start: inactive; Cneo AK release: inactive; E-sel inducer: inactive; DENV2 CPE rescue: 51.1

How did COc1ccc2c3c(n(C)c2c1)[C@@H](CO)N(C(=O)C1CC1)CC31CN(C(=O)CN(C)C)C1 do in these assays?
E-sel inducer: inactive; DENV2 CPE rescue: inactive

How did CCCNC(=O)Nc1ccc2c(c1)C(=O)N(C)C[C@@H](OC)[C@H](C)CN(Cc1cncnc1)[C@@H](C)CO2 do in these assays?
Yeast UUG start: inactive; Cneo AK release: inactive; E-sel inducer: inactive

Results for CCCNC(=O)Nc1ccc2c(c1)C(=O)N(C)C[C@@H](OC)[C@H](C)CN(C(=O)CC)[C@@H](C)CO2 ?
Cneo AK release: inactive; E-sel inducer: inactive

Results for CCCNC(=O)Nc1ccc2c(c1)C(=O)N(C)C[C@H](OC)[C@H](C)CN(Cc1cncnc1)[C@H](C)CO2 ?
Yeast UUG start: inactive; Cneo AK release: inactive; E-sel inducer: inactive; DENV2 CPE rescue: 53.3

What do the screens show for `CCCNC(=O)Nc1ccc2c(c1)C(=O)N(C)C[C@H](OC)[C@@H](C)CN(C(=O)CC)[C@@H](C)CO2`?
Cneo AK release: 98.9; E-sel inducer: inactive

What do the screens show for `CCCNC(=O)Nc1ccc2c(c1)C(=O)N(C)C[C@@H](OC)[C@@H](C)CN(C(=O)CC)[C@H](C)CO2`?
Cneo AK release: 91.3; E-sel inducer: inactive
